Drawing on patent US11566007B2, “Ras inhibitors” (Revolution Medicines, Inc., priority 2019, dated 2023), this text covers EC50 and IC50 for 20 compounds.

Sequences of proteins named here, by UniProt entry; tags and fusion partners are left off. A change or cut given only in a name is not applied to a line headed by its entry. Residues count along the entry.
UniProt P01116, 1-169 isoform 2 G12S limits assumed: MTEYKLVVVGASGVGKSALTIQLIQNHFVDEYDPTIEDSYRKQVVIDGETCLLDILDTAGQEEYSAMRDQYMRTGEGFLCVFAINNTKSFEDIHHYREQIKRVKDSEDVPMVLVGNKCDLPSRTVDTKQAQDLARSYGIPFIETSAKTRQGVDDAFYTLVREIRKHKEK
UniProt P01116, 1-169 isoform 2 G12D limits assumed: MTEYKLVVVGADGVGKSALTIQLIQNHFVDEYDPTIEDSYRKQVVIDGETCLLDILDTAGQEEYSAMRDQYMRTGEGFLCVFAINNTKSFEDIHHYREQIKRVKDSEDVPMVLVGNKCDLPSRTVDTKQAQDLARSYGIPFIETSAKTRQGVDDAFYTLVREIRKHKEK
UniProt P01116, 1-169 isoform 2 Q61H limits assumed: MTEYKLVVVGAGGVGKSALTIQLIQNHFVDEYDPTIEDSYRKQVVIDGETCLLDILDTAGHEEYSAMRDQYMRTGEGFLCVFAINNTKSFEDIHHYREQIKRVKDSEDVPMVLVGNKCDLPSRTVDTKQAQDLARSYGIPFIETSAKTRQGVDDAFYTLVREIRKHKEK
UniProt P62937, whole entry, stated change not applied: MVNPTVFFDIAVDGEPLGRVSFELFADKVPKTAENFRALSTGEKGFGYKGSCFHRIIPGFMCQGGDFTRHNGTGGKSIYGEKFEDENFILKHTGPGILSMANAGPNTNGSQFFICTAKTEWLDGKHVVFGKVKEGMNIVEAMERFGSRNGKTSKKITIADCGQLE

The subject of assay [1] is NCI-H358 cells (K-Ras G12C). Briefly: Potency assay: pERK in NCI-H358 cells. Conditions: read-out: pERK EC50; H358 KRAS G12C.
The next assay concerns the target KRAS G12D (Homo sapiens (Human), UniProt P01116+P62937, G12D). Nature of the assay: Ras-Raf (BRAF RBD) disruption / FRET / MOA assay, KRAS G12D. Conditions: read-out: KRAS G12D FRET data IC50, class symbols. Format: biochemical.
For another assay, the target named is KRAS Q61H (Homo sapiens (Human), UniProt P01116+P62937, Q61H). Nature of the assay: Ras-Raf (BRAF RBD) disruption / FRET / MOA assay, KRAS Q61H. Format: biochemical. Conditions: read-out: KRAS Q61H FRET data IC50, class symbols. As for the experimental part: The purpose of this biochemical assay is to measure the ability of test compounds to facilitate ternary complex formation between a nucleotide-loaded Ras isoform and cyclophilin A; the resulting ternary complex disrupts binding to a BRAF^RBD construct, inhibiting Ras signaling through a RAF effector.
(§1) […]. Compound is present in plate wells as a 10-point 3-fold dilution series starting at a final concentration of 30 μM. After incubation at 25° C. for 3 hours, a mixture of Anti-His Eu-W1024 and anti-GST allophycocyanin is then added to assay sample wells at final concentrations of 10 nM and 50 nM, respectively, and the reaction incubated for an additional 1.5 hours. TR-FRET signal is read on a microplate reader (Ex 320 nm, Em 665/615 nm). Compounds that facilitate disruption of a Ras:RAF complex are identified as those eliciting a decrease in the TR-FRET ratio relative to DMSO control wells.
Note—The following protocol describes a procedure for monitoring disruption of K-Ras G12C (GMP-PNP) binding to BRAF^RBD by a compound of the invention. This protocol may also be executed substituting other Ras proteins or nucleotides.
The purpose of this biochemical assay was to measure the ability of test compounds to facilitate ternary complex formation between a nucleotide-loaded K-Ras isoform and Cyclophilin A; the resulting ternary complex disrupts binding to a BRAF^RBD construct, inhibiting K-Ras signaling through a RAF effector. Data is reported as IC50 values.
as §1, with “Compound was” for “Compound is”, “allophycocyanin was” for “allophycocyanin is”, “signal was” for “signal is”, “a K-Ras:RAF” for “a Ras:RAF”, “complex were” for “complex are”

Another assay has as its target KRAS G12S (Homo sapiens (Human), UniProt P01116+P62937, G12S). Briefly: Ras-Raf (BRAF RBD) disruption / FRET / MOA assay, KRAS G12S. In kind it is biochemical. As to conditions: read-out: KRAS G12S FRET data IC50, class symbols.
The subject of the next assay is NCI-H358 (K-Ras G12C). Nature of the assay: CellTiter-Glo cell viability assay, NCI-H358. Conditions: read-out: Additional H358 Cell Viability assay data (K-Ras G12C, IC50); NCI-H358, 5-day treatment; class symbols. Background: ATP-based viability assays read luminescence as a measure of living cells.

The EC50 is the concentration giving half of the maximal effect. One may read the IC50 as the concentration that inhibits the measured activity by half.

Structures are written as SMILES.

Take `C=CC(=O)N1CCC2(CCN(C(C(=O)NC3Cc4cc(O)cc(c4)-c4ccc5c(c4)c(c(-c4ccccc4CCOC)n5CC)CC(C)(C)COC(=O)C4CCCN(N4)C3=O)C(C)C)C2=O)C1` (stereo not shown): in assay [1], the EC50 is under 5000 nM.
Take `CCn1c(-c2cccnc2[C@H](C)OC)c2c3cc(ccc31)-c1csc(n1)C[C@H](NC(=O)[C@H](C(C)C)N(C)C(=O)N1CC(N(C)C(=O)C#CC(C)(C)N3CCC3)C1)C(=O)N1CCC[C@H](N1)C(=O)OCC(C)(C)C2`: the EC50 in assay [1] was under 5000 nM. Also, the half-maximal inhibitory concentration (IC50) was 1000 to 10000 nM at KRAS G12D, 10 to 100 nM at KRAS Q61H and 100 to 1000 nM on KRAS G12S.
As to `CCn1c(-c2cccnc2COC)c2c3cc(ccc31)-c1cc(O)cc(c1)C[C@H](NC(=O)[C@H](C(C)C)N(C)C(=O)[C@H]1CCN(C(=O)/C=C/CN3CCN(C)CC3)C1)C(=O)N1CCC[C@H](N1)C(=O)OCC(C)(C)C2` (single isomer, unassigned), the half-inhibitory concentration (IC50) is 1000 to 10000 nM on KRAS G12D and 100 to 1000 nM on KRAS G12S.
In the case of `C=CC(=O)N1CCO[C@H]2CN(C(=O)N(C)[C@H](C(=O)N[C@H]3CN4CCC=C(C4)c4ccc5c(c4)c(c(-c4cccnc4[C@H](C)OC)n5CC)CC(C)(C)COC(=O)[C@@H]4CCCN(N4)C3=O)C(C)C)C[C@H]21`, the EC50 in assay [1] is under 5000 nM. The IC50 is 1000 to 10000 nM at KRAS G12D, 100 to 1000 nM at KRAS Q61H, 1000 to 10000 nM on KRAS G12S and under 10 nM in the assay on NCI-H358 (K-Ras G12C).
On to `CCn1c(-c2ccccc2CN(C)C)c2c3cc(ccc31)-c1cc(O)cc(c1)C[C@H](NC(=O)[C@H](C(C)C)N(C)C(=O)[C@H]1CCN(C(=O)/C=C/CN(C)C)C1)C(=O)N1CCC[C@H](N1)C(=O)OCC(C)(C)C2` (single isomer, unassigned), for which the IC50 at KRAS G12D is 1000 to 10000 nM; on KRAS G12S, 100 to 1000 nM.
`CCn1c(-c2cccnc2[C@H](C)OC)c2c3cc(ccc31)-c1csc(n1)C[C@H](NC(=O)[C@H](C(C)C)N(C)C(=O)N(C)C1CN(C(=O)/C=C/C(C)(C)O)C1)C(=O)N1CCC[C@H](N1)C(=O)OCC(C)(C)C2`: the EC50 in assay [1] is under 5000 nM. The IC50 was 1000 to 10000 nM on KRAS G12D, 10 to 100 nM at KRAS Q61H and 100 to 1000 nM at KRAS G12S.
`C=CC(=O)N1CC[C@H](C(=O)N(C)[C@H](C(=O)N[C@H]2Cc3cc(O)cc(c3)-c3ccc4c(c3)c(c(-c3ccc5cc(CN(C)C)n(C)c5c3)n4CC)CC(C)(C)COC(=O)[C@@H]3CCCN(N3)C2=O)C(C)C)C1` (single isomer, unassigned): the IC50 at KRAS G12S is 1000 to 10000 nM.
With `C=CC(=O)N(C)CCN(C)C(=O)N(C)[C@H](C(=O)N[C@H]1Cc2nc(cs2)-c2ccc3c(c2)c(c(-c2cccnc2[C@H](C)OC)n3CC)CC(C)(C)COC(=O)[C@@H]2CCCN(N2)C1=O)C(C)C`, in assay [1], the EC50 was under 5000 nM. Moreover, the results for the IC50 at KRAS G12D, on KRAS G12S and with NCI-H358 (K-Ras G12C) were 1000 to 10000 nM, 100 to 1000 nM and 10 to 100 nM, respectively.
In the case of `C=CC(=O)N1CCC(C(=O)N(C)[C@H](C(=O)N[C@H]2Cc3cc(O)cc(c3)-c3ccc4c(c3)c(c(-c3ccccc3CN(C)C)n4CC)CC(C)(C)COC(=O)[C@@H]3CCCN(N3)C2=O)C(C)C)CC1` (single isomer, unassigned), the IC50 on KRAS G12S lay in the range of 1000 to 10000 nM.
Turning to `C=CC(=O)N1CC[C@H](C(=O)N(C)[C@H](C(=O)N[C@H]2Cc3cccc(c3)-c3ccc4c(c3)c(c(-c3cccnc3[C@H](C)OC)n4CC)CC(C)(C)COC(=O)[C@@H]3CCCN(N3)C2=O)C(C)C)C1`, the EC50 in assay [1] was under 5000 nM. In addition, the IC50 at KRAS G12D and on KRAS G12S was over 10000 nM each time.
For the compound `CCn1c(-c2cccnc2[C@H](C)OC)c2c3cc(ccc31)-c1cccc(c1)C[C@H](NC(=O)[C@H](C(C)C)N(C)C(=O)[C@H]1CCN(C(=O)C#CC3CCO3)C1)C(=O)N1CCC[C@H](N1)C(=O)OCC(C)(C)C2` (mixture of isomers) [Example A509], the IC50 is over 10000 nM at KRAS G12D, over 10000 nM at KRAS G12S and 100 to 1000 nM in the assay with NCI-H358 (K-Ras G12C).
As to `C=CC(=O)N1CC[C@H](C(=O)N(C)[C@H](C(=O)N[C@H]2Cc3cc(O)cc(c3)-c3ccc4c(c3)c(c(-c3ccc(CN(C)C)cc3)n4CC)CC(C)(C)COC(=O)[C@@H]3CCCN(N3)C2=O)C(C)C)C1` (single isomer, unassigned), on KRAS G12S, the IC50 lay within 1000 to 10000 nM.
Take `C=CC(=O)N1CC[C@H](C(=O)N(C)[C@H](C(=O)N[C@H]2Cc3cc(O)cc(c3)-c3ccc4c(c3)c(c(-c3ccccc3)n4CC)CC(C)(C)COC(=O)[C@@H]3CCCN(N3)C2=O)C(C)C)C1` [Example A23]: the IC50 at KRAS Q61H is 1000 to 10000 nM.
With `C=CS(=O)(=O)N1CC[C@H](C(=O)N(C)[C@H](C(=O)N[C@H]2Cc3cc(O)cc(c3)-c3ccc4c(c3)c(c(-c3cccnc3COC)n4CC)CC(C)(C)COC(=O)[C@@H]3CCCN(N3)C2=O)C(C)C)C1` (single isomer, unassigned), at KRAS G12S, the IC50 was 1000 to 10000 nM.
Consider `C=CC(=O)N1CC(N(C)[C@H](C(=O)N[C@H]2Cc3cc(O)cc(c3)-c3ccc4c(c3)c(c(-c3cccnc3COC)n4CC)CC(C)(C)COC(=O)[C@@H]3CCCN(N3)C2=O)C(C)C)C1`, for which, in assay [1], the EC50 is under 5000 nM. Further, the IC50 on KRAS G12D was over 10000 nM; at KRAS G12S, over 10000 nM; with NCI-H358 (K-Ras G12C) it was over 1000 nM.
Consider `CCn1c(-c2ccccc2CCOC)c2c3cc(ccc31)-c1cc(O)cc(c1)C[C@H](NC(=O)[C@H](C(C)C)N(C)C(=O)C1CCN(C(=O)/C=C/CN(C)C)CC1)C(=O)N1CCC[C@H](N1)C(=O)OCC(C)(C)C2` (single isomer, unassigned), for which the IC50 on KRAS G12S fell in the range of 1000 to 10000 nM.
On to `C=CC(=O)N1CC[C@H](C(=O)N(C)[C@H](C(=O)N[C@H]2Cc3cc(OC(=O)CCN4CCN(C)CC4)cc(c3)-c3ccc4c(c3)c(c(-c3ccccc3CCOC)n4CC)CC(C)(C)COC(=O)[C@@H]3CCCN(N3)C2=O)C(C)C)C1` (single isomer, unassigned), for which the IC50 at KRAS G12D and on KRAS G12S was 1000 to 10000 nM in each case.
Regarding `C=CC(=O)N1CC[C@@]2(CCCN([C@H](C(=O)N[C@H]3Cc4cc(O)cc(c4)-c4ccc5c(c4)c(c(-c4ccccc4CCOC)n5CC)CC(C)(C)COC(=O)[C@@H]4CCCN(N4)C3=O)C(C)C)C2=O)C1` (single isomer, unassigned), at KRAS G12S, the IC50 was in the range of 1000 to 10000 nM.
Take `CCn1c(-c2cccnc2[C@H](C)OC)c2c3cc(ccc31)-c1cccc(c1)C[C@H](NC(=O)[C@H](C(C)C)N1CC[C@]3(CCN(C(=O)C#CC(C)(C)N4CCC4)C3)C1=O)C(=O)N1CCC[C@H](N1)C(=O)OCC(C)(C)C2`: the EC50 in assay [1] was under 5000 nM. Further, the IC50 on KRAS Q61H was 100 to 1000 nM.
Regarding `C=CC(=O)C1CC[C@H](C(=O)N(C)[C@H](C(=O)N[C@H]2Cc3cc(O)cc(c3)-c3ccc4c(c3)c(c(-c3cccnc3)n4C3CC3)CC(C)(C)COC(=O)[C@@H]3CCCN(N3)C2=O)C(C)C)C1` (stereo partly shown), the EC50 in assay [1] is under 5000 nM. Further, the IC50 on KRAS Q61H fell in the range of 1000 to 10000 nM; in the assay on NCI-H358 (K-Ras G12C), 100 to 1000 nM.
